Tested on: Caco-2 cell monolayer
Conditions: VIP ≥ 1, p < 0.05, fold change >2.0 or < 0.5

| SMILES | Differential metabolite TSA vs. TSB | Differential metabolite TSA vs. DS (significantly accumulated in TSA) |
| --- | --- | --- |
| COc1ccc(-c2cc(=O)c3c(O)c(OC)c(OC)cc3o2)cc1O [Eupatorin] | upregulated | – |
| COc1ccc(/C=C/C(=O)O)cc1O [Isoferulic acid] | – | upregulated |
